Source: US20210221791A1, “COMPOUNDS” (UNIVERSITETET I OSLO, priority 2016, published 2021)
Where two headings read alike, the source gives them in different places.

Tested on: K. pneumoniae K66-45
Type: cell-based
Settings: inhibitor 25 mg/L
Procedure: After plating and grown overnight at 37° C., only single colonies, ignoring any touching the edges of the plate, were counted.
10^9 CFU K66-45 (Mueller-Hinton broth, no selection) was plated and grown overnight, 37° C. Only single colonies, ignoring any touching the edges of the plate, were counted.

Compound: CN(C[C@H](O)[C@@H](O)[C@H](O)[C@H](O)CO)C(=O)c1ccc(CN(Cc2ccccn2)Cc2ccccn2)nc1 [Example 26, 6-((bis(pyridin-2-ylmethyl)amino)methyl)-N-methyl-N-((2S,3R,4R,5R)-2,3,4,5,6-pentahydroxyhexyl)nicotinamide]
- RF - no of colonies (MEM 1 mg/L): 74
- RF - no of colonies (MEM 2 mg/L): 35
- RF - no of colonies (MEM 4 mg/L): nc (n.c. = no colonies)
- RF - no of colonies (MEM 8 mg/L): nc (n.c. = no colonies)
